Molecular target: Disintegrin and metalloproteinase domain-containing protein 17 (Homo sapiens, UniProt P78536)

Amino acid sequences for entries named in this document (tags omitted). A change or cut given only in a name is not applied to a line headed by its entry.
UniProt P78536: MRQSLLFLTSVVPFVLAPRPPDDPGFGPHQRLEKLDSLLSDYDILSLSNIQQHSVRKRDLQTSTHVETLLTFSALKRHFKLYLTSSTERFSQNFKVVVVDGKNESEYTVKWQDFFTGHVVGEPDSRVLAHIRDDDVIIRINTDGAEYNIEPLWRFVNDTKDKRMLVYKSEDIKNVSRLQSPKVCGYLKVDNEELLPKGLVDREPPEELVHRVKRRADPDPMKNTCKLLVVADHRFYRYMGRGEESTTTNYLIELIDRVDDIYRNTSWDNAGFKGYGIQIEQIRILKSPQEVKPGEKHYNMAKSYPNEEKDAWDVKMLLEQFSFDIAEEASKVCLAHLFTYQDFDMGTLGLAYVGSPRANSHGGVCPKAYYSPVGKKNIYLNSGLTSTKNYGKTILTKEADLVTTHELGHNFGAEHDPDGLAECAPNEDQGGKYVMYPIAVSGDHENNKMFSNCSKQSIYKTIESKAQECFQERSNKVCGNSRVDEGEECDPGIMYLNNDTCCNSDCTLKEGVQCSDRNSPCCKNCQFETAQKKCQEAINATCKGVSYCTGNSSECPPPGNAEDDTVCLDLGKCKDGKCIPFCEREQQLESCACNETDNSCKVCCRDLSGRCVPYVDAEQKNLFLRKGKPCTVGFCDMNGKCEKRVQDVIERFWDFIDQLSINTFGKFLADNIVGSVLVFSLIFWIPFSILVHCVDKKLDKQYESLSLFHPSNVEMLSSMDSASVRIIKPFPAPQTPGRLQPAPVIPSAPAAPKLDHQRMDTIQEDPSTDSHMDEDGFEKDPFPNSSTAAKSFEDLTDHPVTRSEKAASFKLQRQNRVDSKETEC

Compound: COC(=O)[C@]1(c2cccc(OCc3cc(C)nc4ccccc34)c2)C[C@H]1C(=O)NO (relative stereo)
- Ki: 12 nM

From ChEMBL document CHEMBL1141652 (J Med Chem, 2008)
